This is an account of results in US20210255205A1, “COMPOSITIONS AND METHODS FOR TREATING METABOLIC DISEASE” (THE REGENTS OF THE UNIVERSITY OF CALIFORNIA, priority 2018, published 2021).

This assay concerns ASTER domains from Aster-A, -B, and -C. Description: fluorescent NBD-cholesterol binding assay. Further details: species or system mouse. The conditions noted are these: fluorescence binding assay.

Regarding 6-NBD-cholesterol, the “binding to the ASTER domains” value is given as “did not bind”.
